ChEMBL document CHEMBL1133280, “Discovery and synthesis of a potent sulfonamide ET(B) selective antagonist” (Bioorg Med Chem Lett, 2000)

Protein sequences, listed by entry. Tags and fused reporters are not part of them.
UniProt P26684, whole entry: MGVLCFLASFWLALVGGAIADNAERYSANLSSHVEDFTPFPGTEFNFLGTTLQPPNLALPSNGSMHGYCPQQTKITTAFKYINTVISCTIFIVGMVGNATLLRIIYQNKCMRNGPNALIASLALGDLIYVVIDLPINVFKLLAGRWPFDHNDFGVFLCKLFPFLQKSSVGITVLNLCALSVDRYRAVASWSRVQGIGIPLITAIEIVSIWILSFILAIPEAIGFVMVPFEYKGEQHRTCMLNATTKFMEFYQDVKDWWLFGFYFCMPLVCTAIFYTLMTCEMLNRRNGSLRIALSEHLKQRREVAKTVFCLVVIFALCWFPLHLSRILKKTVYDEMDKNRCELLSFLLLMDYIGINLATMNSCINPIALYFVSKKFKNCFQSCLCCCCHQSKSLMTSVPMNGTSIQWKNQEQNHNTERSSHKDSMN

Biological target: Endothelin-1 receptor (Rattus norvegicus, UniProt P26684)
Assay: Displacement of [125 I] ET-1 from rat aortic smooth muscle A7r5 cells transfected with Endothelin A receptor
Type: cell-based

Q: How did the pIC50 turn out when `Cc1cc(NS(=O)(=O)c2ccc(N)cc2)no1` [SULFAMETHOXAZOLE] was run?
A: 3.48

pIC50: −log10 of the molar value.
